# Assay results published in patent US20240190916A1, “NOVEL PEPTIDE” (HYSENSBIO, priority 2022, published 2024).
# B1: BMP2: positive control BMP2 in the hDPC transplantation experiment (protein, UniProt P12643 283-396, looked up)
# Bone morphogenetic protein 2: QAKHKQRKRLKSSCKRHPLYVDFSDVGWNDWIVAPPGYHAFYCHGECPFPLADHLNSTNHAIVQTLVNSVNSKIPKACCVPTELSAISMLYLDENEKVVLKNYQDMVVEGCGCR
# Tested on: human dental pulp cells (hDPCs) transplanted into the subcutaneous tissue of mice with impaired immune systems
# Assay: In vivo transplantation of hDPCs with HA/TCP and histological analysis
# Details: 12 weeks after transplantation, FIG. 5
# Description: Human dental pulp cells (hDPCs) were isolated and used for in vivo transplantation experiments. hDPCs (2×10^6 cells) were mixed with 100 mg of hydroxy apatite/tricalcium phosphate (HA/TCP) ceramic powder (Zimmer, USA) alone or along with peptides (10 μg) or 0.5% fibrin gel, and then transplanted into mice (NIH-bg-nu-xid; Harlan Laboratories, Indianapolis, IN) with damaged immune systems for 6 and 12 weeks. Thereafter, samples were harvested, fixed in 4% paraformaldehyde, decalcified in 10% EDTA (pH 7.4), embedded in paraffin, and stained with hematoxylin-eosin (H-E) (Vector Labs).
molecule,measurement,value
B1,"hard tissue (bone/cementum-like tissue) formation, hematoxylin-eosin histology",a bone/cementum-like tissue incorporating cells into matrix of a newly formed calcified tissue
